## Binding of CDR-mutated scFvs to a peptide of the spike HR2 region

The measurements come from Li et al. 2023 (doi:10.1038/s41467-023-39022-2) through the FLAb antibody collection.

The target is the same throughout: PDVDLGDISGINAS, from the HR2 region of SARS-CoV-2 spike.

Parent: Ab-14, a human scFv built as VH, three GGGGS repeats, VL. Only the CDRs of the light chain vary.
VH: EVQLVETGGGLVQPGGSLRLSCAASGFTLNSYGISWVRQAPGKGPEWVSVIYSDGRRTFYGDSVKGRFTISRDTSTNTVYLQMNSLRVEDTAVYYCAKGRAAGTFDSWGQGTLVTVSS
VL: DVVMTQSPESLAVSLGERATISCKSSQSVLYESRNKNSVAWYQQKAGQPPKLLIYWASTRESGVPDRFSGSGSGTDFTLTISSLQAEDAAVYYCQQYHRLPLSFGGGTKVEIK

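Phage display of a naive human antibody library on the peptide gave the parent. These sequences belong to a second round, designed from the earlier measurements on random variants of the parent. Group labels follow the data file (Ctrl: baseline library sampled from a position-specific scoring matrix, with some repeated check sequences; Rand: our label for a block that the file lists under HC and that is probably the random mutants of the ten best first-round binders; En: ensemble of fine-tuned language models; GP: Gaussian process model; HC: hill climbing; Gen: genetic algorithm; Gibbs: Gibbs sampling; a sequence that several methods proposed may carry one label only). The assay is AlphaSeq: two haploid yeast populations carry antibody and antigen on their surface. Pairs that bind mate more often; barcode pairs of the diploids are counted by sequencing. A regression on co-assayed BCL2-family reference pairs converts the normalised counts of each replicate to an apparent Kd. Each pool was mated in six replicate cultures.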

Variants are written as CDR1, CDR2 and CDR3 of the light chain (limits as in the source). Parent: KSSQSVLYESRNKNSVA, WASTRES, QQYHRLPLS.
Values are log10 of the apparent Kd in nM; lower means stronger binding.
Averages over replicates are reported, and they cover detected replicates only.
A pair that was not seen in any replicate is written "nd"; this usually means weak binding, but a binder can also be missed.
The list is sorted by this average, lowest first, undetected variants last.
In the paper, a design with two or fewer of six values counts as a poor binder.
As a blank, each scFv also met three strains without target: over all light chain designs, 4% of these pairings were detected, typically at 2.64 and seldom below 1.59.
Of ten entries with the parent sequence, four were seen in most replicates (averages 0.34 to 2.37), three in one and three in none, so single entries are noisy.
The range of this assay differs from that of the first round, and the authors advise against merging the two.

| CDR-L1 | CDR-L2 | CDR-L3 | group | mean, log10 nM | detected |
|---|---|---|---|---|---|
| KLSQSELYESRNKNNVA | NASTRMS | QQYHRLPLS | GP_Gen | -0.52 | 6 of 6 |
| KFSQSELYESRNKNSVA | DASTRES | QQYHRLPLS | GP_Gen | -0.51 | 6 of 6 |
| KLSQSVEYESRNKNSVA | DASTRES | QQYHRLPLS | GP_Gen | -0.46 | 6 of 6 |
| KISQSWLYESRNKNSVA | GASSRES | QQYHRLPLS | GP_HC | -0.43 | 6 of 6 |
| KGSQSWLYESRNKNSVA | GASTRES | QQYHRLPLS | GP_HC | -0.39 | 6 of 6 |
| KLSQSVLYEQRNKNSVA | GASTRES | QQYHRLPLS | GP_Gen | -0.37 | 6 of 6 |
| KLSSSQLYESRNKNSVA | NASTRES | QQYHRLPLS | GP_Gen | -0.34 | 6 of 6 |
| IISQVDAYESRIKNSIA | DQSTRGS | QQYDRLPLS | En_HC | -0.20 | 6 of 6 |
| KVRQSELYESRNKNSVA | NASTRES | QQYHRLPLS | GP_HC | -0.20 | 6 of 6 |
| KISQSVGYEIRNKNSVA | NASQRMQ | QQYHRLPLS | GP_Gibbs | -0.19 | 6 of 6 |
| KSSQSVPFESRNKNSVA | DASTRES | QQYHRLPLS | GP_HC | -0.04 | 6 of 6 |
| HLSQSELYESRNKNSVA | NASTRES | QQYHRLPLS | GP_Gen | -0.03 | 6 of 6 |
| KLYPSYLYESRNKNSVA | QASTRES | QQYHLLPLS | GP_HC | 0.02 | 6 of 6 |
| HLSESVLYESRNKNSVA | NASTRES | QQYHRLPLN | GP_HC | 0.06 | 6 of 6 |
| KLSQSWWMESRNPNNVA | HASKRES | QQYHRLPLS | GP_Gibbs | 0.12 | 6 of 6 |
| KVSQSVLYEDGTKNSVA | NASSRES | QQYHRLPLS | GP_HC | 0.13 | 6 of 6 |
| KVLQSVLYESRNKNSVA | EASTRED | QQYHRLPLS | GP_HC | 0.15 | 6 of 6 |
| KAPQSMWYESRNQNSVA | SASTRSQ | QQYHRLPLS | GP_Gibbs | 0.15 | 6 of 6 |
| KLGDYVHTLSRNKNSIA | DMRTRES | QQYYRLPLS | En_HC | 0.16 | 6 of 6 |
| QIYQAMHTLMQAKNNIA | DVTNRNN | QQYHRLPLS | En_Gen | 0.17 | 6 of 6 |
| LSSISYEYESPNKNSVA | EASTRES | QQYHRLPLS | GP_HC | 0.20 | 6 of 6 |
| TISQSMHQESHNKNSVA | DLNVRGS | QQYDRLPLS | En_HC | 0.21 | 6 of 6 |
| KSSPSEYYEDREFNSVA | HASQRES | QQYHRLPLS | GP_Gibbs | 0.22 | 6 of 6 |
| KSAQSVLYESRNKNSVA | QASTRER | QQYHRLPLS | Ctrl | 0.31 | 6 of 6 |
| KLTMMYQHTSLNKNNIA | ERSTREE | QQYHHLPLS | En_HC | 0.37 | 6 of 6 |
| MISQLMNMGQFAINSVA | QASIRNN | QQYDRLPLA | En_Gen | 0.45 | 6 of 6 |
| TISSIMNHLTRNSNNVA | NMDMRED | QQYDRLPLS | En_Gen | 0.46 | 6 of 6 |
| KSSISYLYESPNKNSVA | EASTREQ | QQYHRLPLS | GP_HC | 0.60 | 6 of 6 |
| KSQQSVLYESRNSNSVA | NASTREL | QDYHRLPLS | GP_Gibbs | 0.62 | 6 of 6 |
| KSSQSVLFESRNKNSVS | DAWTRES | QQYHRLPLS | Rand | 0.65 | 6 of 6 |
| KLEGSKEYESRWKNSVA | HASVREV | QQYHRLPLS | GP_Gibbs | 0.65 | 6 of 6 |
| RLQAHMYDDQYHVNAIA | AGHDRAK | QQYQRLPLS | En_Gibbs | 0.65 | 6 of 6 |
| HVSGLYTDESVNWYNIA | ETSHVEM | QQYERLPLI | En_Gibbs | 0.70 | 6 of 6 |
| ALRGVGYDEQVKHYAIA | DGEHLNN | QQYSMLPLS | En_Gibbs | 0.73 | 6 of 6 |
| KLRTMTLTEGYFKNSVA | QASTREN | QSYHRLPLS | En_HC | 0.75 | 6 of 6 |
| TIGVTLMQGIRNRSNVA | EVSERLN | QQYDRLPLI | En_Gen | 0.81 | 6 of 6 |
| KLLISVLDEERNDNSVA | NASHRLS | QQYHRLPLS | GP_Gibbs | 0.81 | 6 of 6 |
| KLSQNVLFFGHAINSVA | EMETREN | QQYDRLPLS | En_HC | 0.85 | 6 of 6 |
| TISQMTSLFSQTINNVA | EVSMREP | QQYDRLPLI | En_Gen | 1.03 | 6 of 6 |
| KSSQSVLYEMRNKNSVA | NASTRES | QQYHRLPLS | Ctrl | 1.08 | 6 of 6 |
| TLMQVGGYELNAHNSIA | DLRTREN | QQYHRLPLS | En_HC | 1.10 | 5 of 6 |
| KITGTMRFEQKAKNNIA | EVTTRSK | QQYYRLPLS | En_Gen | 1.11 | 6 of 6 |
| QLMEEQSMRTEATWNIA | QGEQKVH | QQYFRLPLA | En_Gibbs | 1.14 | 6 of 6 |
| ALSHPSDSWLEHQNSIA | DDNISLT | QQYHQLPLS | En_Gibbs | 1.19 | 6 of 6 |
| KSSQSALFASQNKNSVA | QASTRES | QQYHRLPLS | Ctrl | 1.38 | 6 of 6 |
| HITLGMYVAGRHSHSIA | QAETREK | QQYDRLPLI | En_Gen | 1.43 | 2 of 6 |
| ILSQMMLVAGNKHSSVA | QANNRED | QQYHRLPLS | En_HC | 1.51 | 6 of 6 |
| KLSEFEQGNTQHANAVA | EMREVQH | QHYHRLPLM | En_Gibbs | 1.76 | 4 of 6 |
| IFSQSVMMGNLTRNSVA | QASTRFN | QQYHRLPLI | En_HC | 2.51 | 4 of 6 |
| QLHAYTQGFWRAMGNIA | DISYRVT | QQYGRLPLS | En_Gibbs | 2.52 | 4 of 6 |
| HFAHPWQSGYDSKQNVA | NDSTVMT | QHYNRLPLS | En_Gibbs | 3.65 | 2 of 6 |
| KSSQSSLYESRNKNSVA | WASTRES | QQYHRLPLS | Ctrl | nd | 0 of 6 |
| KSSQSVLYQSRNKNSHA | AASTRES | QQYHRLPLS | Ctrl | nd | 0 of 6 |
| KSSQSVLYESRNKNSVA | AASTREI | QQYHDLPLS | Ctrl | nd | 0 of 6 |
| KVSQSGLYESRNKNSGA | WASTRES | QQYHRLPLS | Ctrl | nd | 0 of 6 |
| KLLQSVLYESRNKDSVA | WAMTRES | QQYHRLPLS | Ctrl | nd | 0 of 6 |
| KSSQSVLYESRNKNSVA | WASTRES | QQPERLPLS | Ctrl | nd | 0 of 6 |

From the list, the first 6 with no signal in any replicate:

{"CDR-L1": "KSSQSSLYESRNKNSVA", "CDR-L2": "WASTRES", "CDR-L3": "QQYHRLPLS", "group": "Ctrl", "mean, log10 nM": "nd", "detected": "0 of 6"}
{"CDR-L1": "KSSQSVLYQSRNKNSHA", "CDR-L2": "AASTRES", "CDR-L3": "QQYHRLPLS", "group": "Ctrl", "mean, log10 nM": "nd", "detected": "0 of 6"}
{"CDR-L1": "KSSQSVLYESRNKNSVA", "CDR-L2": "AASTREI", "CDR-L3": "QQYHDLPLS", "group": "Ctrl", "mean, log10 nM": "nd", "detected": "0 of 6"}
{"CDR-L1": "KVSQSGLYESRNKNSGA", "CDR-L2": "WASTRES", "CDR-L3": "QQYHRLPLS", "group": "Ctrl", "mean, log10 nM": "nd", "detected": "0 of 6"}
{"CDR-L1": "KLLQSVLYESRNKDSVA", "CDR-L2": "WAMTRES", "CDR-L3": "QQYHRLPLS", "group": "Ctrl", "mean, log10 nM": "nd", "detected": "0 of 6"}
{"CDR-L1": "KSSQSVLYESRNKNSVA", "CDR-L2": "WASTRES", "CDR-L3": "QQPERLPLS", "group": "Ctrl", "mean, log10 nM": "nd", "detected": "0 of 6"}